This is a selection: effects in other tests are not listed, and their absence says nothing.
Columns and labels:
[1] = target: apolipoprotein B-100 (ApoB-100) (Homo sapiens, UniProt P04114); test: Surface plasmon resonance binding to immobilized ApoB-100; conditions: SPR, 25 °C, HBS-EP pH 7.4, ligand ApoB-100
[2] = tested on: α1-acid glycoprotein (α1-AGP); test: Surface plasmon resonance binding to immobilized α1-AGP; conditions: SPR, 25 °C, HBS-EP pH 7.4, ligand α1-AGP
[3] = target: apolipoprotein A-1 (ApoA-1) (Homo sapiens, UniProt P02647); test: Surface plasmon resonance binding to immobilized ApoA-1; conditions: SPR, 25 °C, HBS-EP pH 7.4, ligand ApoA-1

Protein sequences, listed by entry. Tags and fused reporters are not part of them. Residues count along the entry.
UniProt P04114, 28-4563 limits assumed: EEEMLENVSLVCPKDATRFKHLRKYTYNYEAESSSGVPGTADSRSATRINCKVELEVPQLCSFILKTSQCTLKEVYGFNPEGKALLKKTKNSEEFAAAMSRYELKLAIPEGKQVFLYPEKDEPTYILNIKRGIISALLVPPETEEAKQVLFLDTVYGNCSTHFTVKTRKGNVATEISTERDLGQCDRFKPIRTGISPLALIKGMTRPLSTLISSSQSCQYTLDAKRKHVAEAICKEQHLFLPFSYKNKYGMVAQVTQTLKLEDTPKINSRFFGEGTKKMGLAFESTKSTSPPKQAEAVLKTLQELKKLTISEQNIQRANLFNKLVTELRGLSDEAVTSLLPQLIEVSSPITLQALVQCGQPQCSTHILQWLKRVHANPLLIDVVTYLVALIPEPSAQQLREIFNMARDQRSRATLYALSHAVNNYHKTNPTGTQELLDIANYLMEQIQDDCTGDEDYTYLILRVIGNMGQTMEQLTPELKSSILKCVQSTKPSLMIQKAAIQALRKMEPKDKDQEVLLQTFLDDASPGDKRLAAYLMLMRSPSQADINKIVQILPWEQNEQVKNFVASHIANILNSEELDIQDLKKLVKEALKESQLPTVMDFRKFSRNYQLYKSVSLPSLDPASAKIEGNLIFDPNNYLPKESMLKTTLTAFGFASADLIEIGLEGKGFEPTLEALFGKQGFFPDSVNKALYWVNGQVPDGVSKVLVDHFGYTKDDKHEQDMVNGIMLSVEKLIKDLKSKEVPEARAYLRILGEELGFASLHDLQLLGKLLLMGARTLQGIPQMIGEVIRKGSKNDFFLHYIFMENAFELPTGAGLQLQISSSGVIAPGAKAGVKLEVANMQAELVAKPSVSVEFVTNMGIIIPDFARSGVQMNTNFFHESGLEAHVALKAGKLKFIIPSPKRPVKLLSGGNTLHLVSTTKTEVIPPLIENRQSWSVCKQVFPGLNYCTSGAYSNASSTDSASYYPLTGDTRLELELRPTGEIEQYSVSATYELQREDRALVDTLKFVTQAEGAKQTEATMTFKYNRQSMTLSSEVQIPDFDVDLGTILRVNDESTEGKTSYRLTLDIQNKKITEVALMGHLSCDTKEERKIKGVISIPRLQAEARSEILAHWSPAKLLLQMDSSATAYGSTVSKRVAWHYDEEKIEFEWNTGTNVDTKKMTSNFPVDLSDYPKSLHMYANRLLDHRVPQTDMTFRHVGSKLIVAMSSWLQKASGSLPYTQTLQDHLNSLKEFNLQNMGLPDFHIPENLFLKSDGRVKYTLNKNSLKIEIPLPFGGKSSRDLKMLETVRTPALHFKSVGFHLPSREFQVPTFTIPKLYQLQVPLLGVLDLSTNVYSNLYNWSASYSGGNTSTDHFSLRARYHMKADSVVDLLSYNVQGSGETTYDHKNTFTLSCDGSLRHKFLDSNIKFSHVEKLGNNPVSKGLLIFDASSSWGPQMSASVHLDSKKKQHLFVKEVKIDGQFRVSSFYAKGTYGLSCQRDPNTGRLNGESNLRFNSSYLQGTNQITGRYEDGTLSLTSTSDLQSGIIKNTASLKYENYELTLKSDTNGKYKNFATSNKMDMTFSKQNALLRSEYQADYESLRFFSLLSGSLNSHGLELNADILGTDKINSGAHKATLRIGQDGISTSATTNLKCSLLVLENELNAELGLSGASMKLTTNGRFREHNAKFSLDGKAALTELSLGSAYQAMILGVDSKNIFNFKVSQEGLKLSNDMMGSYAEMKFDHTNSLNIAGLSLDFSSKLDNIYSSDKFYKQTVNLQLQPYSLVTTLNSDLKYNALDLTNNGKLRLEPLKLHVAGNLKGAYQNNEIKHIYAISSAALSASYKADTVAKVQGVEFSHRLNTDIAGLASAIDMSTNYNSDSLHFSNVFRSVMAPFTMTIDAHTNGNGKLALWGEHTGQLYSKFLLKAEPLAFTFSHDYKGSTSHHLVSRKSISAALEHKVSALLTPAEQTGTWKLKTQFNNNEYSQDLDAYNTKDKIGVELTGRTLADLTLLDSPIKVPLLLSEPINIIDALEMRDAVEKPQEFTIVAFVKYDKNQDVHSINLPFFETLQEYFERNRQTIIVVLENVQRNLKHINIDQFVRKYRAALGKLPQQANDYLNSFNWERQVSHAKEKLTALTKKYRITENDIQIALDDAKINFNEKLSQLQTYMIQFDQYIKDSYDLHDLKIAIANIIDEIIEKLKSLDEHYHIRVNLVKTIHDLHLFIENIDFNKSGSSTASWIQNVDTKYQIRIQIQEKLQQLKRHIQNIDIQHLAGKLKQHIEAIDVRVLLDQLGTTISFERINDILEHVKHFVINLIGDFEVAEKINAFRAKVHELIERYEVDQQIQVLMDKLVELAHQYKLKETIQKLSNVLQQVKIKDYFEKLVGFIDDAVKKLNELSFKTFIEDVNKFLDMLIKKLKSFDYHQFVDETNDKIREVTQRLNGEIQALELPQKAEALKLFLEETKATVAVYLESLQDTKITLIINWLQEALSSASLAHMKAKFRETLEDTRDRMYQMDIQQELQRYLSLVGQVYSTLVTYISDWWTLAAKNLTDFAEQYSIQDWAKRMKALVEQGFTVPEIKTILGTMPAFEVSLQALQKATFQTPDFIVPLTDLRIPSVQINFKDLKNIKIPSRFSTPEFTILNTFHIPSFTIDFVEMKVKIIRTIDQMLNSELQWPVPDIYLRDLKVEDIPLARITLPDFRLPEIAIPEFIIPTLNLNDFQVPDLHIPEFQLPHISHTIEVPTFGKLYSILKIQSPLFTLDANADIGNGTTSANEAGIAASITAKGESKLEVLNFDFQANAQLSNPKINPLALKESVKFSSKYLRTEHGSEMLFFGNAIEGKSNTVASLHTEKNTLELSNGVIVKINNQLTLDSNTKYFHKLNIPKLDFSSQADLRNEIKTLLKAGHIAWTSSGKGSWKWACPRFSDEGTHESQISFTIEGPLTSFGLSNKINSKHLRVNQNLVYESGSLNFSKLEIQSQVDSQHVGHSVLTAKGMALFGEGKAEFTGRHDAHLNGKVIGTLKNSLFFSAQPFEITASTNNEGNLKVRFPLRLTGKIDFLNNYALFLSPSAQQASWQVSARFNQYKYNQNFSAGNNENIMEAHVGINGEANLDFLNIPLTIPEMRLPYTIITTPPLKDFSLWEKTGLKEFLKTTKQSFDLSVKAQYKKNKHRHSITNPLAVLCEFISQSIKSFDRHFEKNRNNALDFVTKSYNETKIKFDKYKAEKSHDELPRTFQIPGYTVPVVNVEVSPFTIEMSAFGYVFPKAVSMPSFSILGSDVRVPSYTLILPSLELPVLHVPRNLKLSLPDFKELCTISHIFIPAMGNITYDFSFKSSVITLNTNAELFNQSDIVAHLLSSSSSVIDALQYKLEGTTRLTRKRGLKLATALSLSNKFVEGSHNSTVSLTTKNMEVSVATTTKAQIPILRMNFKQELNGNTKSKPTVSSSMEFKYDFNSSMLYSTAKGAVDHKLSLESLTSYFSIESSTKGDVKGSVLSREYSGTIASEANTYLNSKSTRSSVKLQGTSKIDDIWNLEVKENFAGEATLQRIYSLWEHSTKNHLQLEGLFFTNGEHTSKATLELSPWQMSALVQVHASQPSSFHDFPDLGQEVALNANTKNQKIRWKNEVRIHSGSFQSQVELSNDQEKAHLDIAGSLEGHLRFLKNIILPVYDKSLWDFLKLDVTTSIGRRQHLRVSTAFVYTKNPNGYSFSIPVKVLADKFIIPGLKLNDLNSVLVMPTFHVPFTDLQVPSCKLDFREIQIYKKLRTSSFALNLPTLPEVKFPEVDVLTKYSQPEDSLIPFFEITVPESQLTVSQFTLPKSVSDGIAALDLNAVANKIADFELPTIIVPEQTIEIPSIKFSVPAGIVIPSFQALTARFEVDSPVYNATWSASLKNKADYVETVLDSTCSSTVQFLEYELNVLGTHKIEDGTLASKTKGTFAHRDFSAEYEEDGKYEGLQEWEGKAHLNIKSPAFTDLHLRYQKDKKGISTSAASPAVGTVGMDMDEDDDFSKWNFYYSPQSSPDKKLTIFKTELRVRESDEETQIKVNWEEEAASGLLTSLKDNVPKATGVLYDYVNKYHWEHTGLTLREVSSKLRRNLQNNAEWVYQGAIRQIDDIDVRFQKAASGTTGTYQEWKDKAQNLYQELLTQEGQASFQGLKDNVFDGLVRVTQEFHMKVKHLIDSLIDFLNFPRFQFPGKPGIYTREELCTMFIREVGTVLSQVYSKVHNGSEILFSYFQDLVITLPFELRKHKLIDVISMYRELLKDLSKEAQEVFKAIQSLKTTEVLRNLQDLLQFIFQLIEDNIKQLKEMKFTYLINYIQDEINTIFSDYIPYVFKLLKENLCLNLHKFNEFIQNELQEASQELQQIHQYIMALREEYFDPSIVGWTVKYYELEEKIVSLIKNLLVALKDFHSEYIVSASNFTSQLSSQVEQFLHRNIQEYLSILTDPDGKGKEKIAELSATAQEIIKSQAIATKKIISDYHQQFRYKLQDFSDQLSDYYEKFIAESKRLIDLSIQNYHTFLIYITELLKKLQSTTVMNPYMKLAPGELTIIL
UniProt P02647, 19-267 limits assumed: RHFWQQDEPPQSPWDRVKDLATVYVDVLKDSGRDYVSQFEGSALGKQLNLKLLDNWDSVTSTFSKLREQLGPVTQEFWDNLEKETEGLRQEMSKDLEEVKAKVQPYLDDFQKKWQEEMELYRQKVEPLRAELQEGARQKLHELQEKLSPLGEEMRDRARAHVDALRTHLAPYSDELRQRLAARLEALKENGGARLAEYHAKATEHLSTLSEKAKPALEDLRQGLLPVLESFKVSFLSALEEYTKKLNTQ

Compound	KA [1]	ka [1]	kd [1]	KA [2]	kd [2]	ka [3]	kd [3]	Kd [1] [µM]
CCC(=O)N(c1ccccc1)C1CCN(CCc2ccccc2)CC1.O=C(O)CC(O)(CC(=O)O)C(=O)O	5.41 ± 1.10 × 10^3 M^−1	1.34 ± 0.16 × 10^2 M^−1 × s^−1	2.52 ± 0.25 × 10^−2 s^−1	2.69 ± 4.66 × 10^8 M^−1	4.22 ± 4.44 × 10^−3 s^−1	3.42 ± 0.22 × 10^2 M^−1 × s^−1	1.18 ± 1.15 × 10^−6 s^−1	–
CCC(=O)N(c1ccccc1)C1CCN(CCc2ccccc2)CC1	–	–	–	–	–	–	–	191
